Experimental data taken from paper PMC10238739, “Interaction with single-stranded DNA-binding protein modulates Escherichia coli RadD DNA repair activities” (The Journal of Biological Chemistry, 2023).

Target: T1, Escherichia coli RadD, wild type (E. coli, UniProt P33919 1-586)
T1 construct: also called WT RadD
T1 sequence: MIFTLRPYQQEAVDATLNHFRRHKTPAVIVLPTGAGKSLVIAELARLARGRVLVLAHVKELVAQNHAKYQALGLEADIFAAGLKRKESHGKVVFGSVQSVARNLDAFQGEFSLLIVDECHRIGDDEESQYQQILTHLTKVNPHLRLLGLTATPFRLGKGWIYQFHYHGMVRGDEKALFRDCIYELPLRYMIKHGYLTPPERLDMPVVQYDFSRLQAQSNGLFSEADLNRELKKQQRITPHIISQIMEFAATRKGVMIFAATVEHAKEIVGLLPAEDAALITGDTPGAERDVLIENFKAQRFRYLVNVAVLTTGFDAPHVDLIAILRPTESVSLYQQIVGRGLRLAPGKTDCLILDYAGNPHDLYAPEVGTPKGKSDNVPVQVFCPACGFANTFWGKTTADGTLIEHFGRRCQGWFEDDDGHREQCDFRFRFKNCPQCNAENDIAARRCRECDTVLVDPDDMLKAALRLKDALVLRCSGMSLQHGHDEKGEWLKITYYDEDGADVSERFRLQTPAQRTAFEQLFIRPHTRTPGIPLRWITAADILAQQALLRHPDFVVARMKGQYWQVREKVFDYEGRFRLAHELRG
Assay: ammonium sulfate co-precipitation; RadD or variant incubated with full-length SSB and 150 g/L ammonium sulfate; pellet fractions run on 12% SDS-PAGE
Settings: both partners purified

B1: Escherichia coli single-stranded DNA-binding protein (SSB), full-length (natural protein, E. coli, UniProt P0AGE0 1-178, looked up)
chain: MASRGVNKVILVGNLGQDPEVRYMPNGGAVANITLATSESWRDKATGEMKEQTEWHRVVLFGKLAEVASEYLRKGSQVYIEGQLRTRKWTDQSGQDRYTTEVVVNVGGTMQMLGGRQGGGAPAGGNIGGGQPQGGWGQPQQPQGGNQFSGGAQSRPQQSAPAAPSNEPPMDFDDDIPF
notes: also called full-length SSB
B1: binds.
